Test results reported in patent publication US20190077795A1, “ARGININE […] INHIBITORS AND USES THEREOF” (Epizyme, Inc., priority 2014, published 2019).

System: mono-methyl arginine in RKO cells
Assay: RKO Methylation Assay, In Cell Western (ICW)
Type: cell-based
Conditions: 72 hours
Excerpt: RKO adherent cells were purchased from ATCC (American Type Culture Collection), Manassas, Va., USA. DMEM/Glutamax medium, penicillin-streptomycin, heat inactivated fetal bovine serum, 0.05% trypsin and D-PBS were purchased from Life Technologies, Grand Island, N.Y., USA. Odyssey blocking buffer, 800CW goat anti-rabbit IgG (H+L) antibody, and Licor Odyssey infrared scanner were purchased from Licor Biosciences, Lincoln, Nebr., USA. Mono-methyl arginine antibody was purchased from Cell Signaling Technology, Danvers, Mass., USA. Methanol was purchased from VWR, Franklin, Mass., USA. 10% Tween 20 was purchased from KPL, Inc., Gaithersburg, Md., USA. DRAQ5 was purchased from Biostatus Limited, Leicestershire, UK. […]
First, the ratio for each well was determined by:
Each plate included fourteen control wells of DMSO only treatment (minimum activation) as well as fourteen control wells for maximum activation treated with 20 μM of a reference compound. The average of the ratio values for each control type was calculated and used to determine the percent activation for each test well in the plate. […] Percent activation was determined and EC30 curves were generated using triplicate wells per concentration of compound.

With `CNCCN(C)Cc1c[nH]nc1-c1ccc(OC2CC(OCCC3CCOCC3)C2)cc1` (stereo not shown) [Compound 145] as the molecule, how does the “ICW EC30” value read?
The value was 1.039 µM.
